According to patent US7601489B2, “Manganese ion regulation of reverse transcriptase activity and methods of modulating same” (The Johns Hopkins University, priority 2002, dated 2009):

Tests used:
wild-type Ty1 RT [1] = biological target: T1, wild-type Ty1 RT (Saccharomyces cerevisiae, UniProt P47098); set-up: Recombinant Ty1 RT (Wilhelm et al., supra, 2000) was PCR amplified and subcloned into the BamH I and Xho I sites of pGEX-4T-3; GST (N); made in house; host or cells: E. coli (pGEX-4T-3); settings: purified recombinant Ty1 RT; Wilhelm et al. 2000; cited from earlier work
T1 sequence (P47098 1218-1755 limits assumed): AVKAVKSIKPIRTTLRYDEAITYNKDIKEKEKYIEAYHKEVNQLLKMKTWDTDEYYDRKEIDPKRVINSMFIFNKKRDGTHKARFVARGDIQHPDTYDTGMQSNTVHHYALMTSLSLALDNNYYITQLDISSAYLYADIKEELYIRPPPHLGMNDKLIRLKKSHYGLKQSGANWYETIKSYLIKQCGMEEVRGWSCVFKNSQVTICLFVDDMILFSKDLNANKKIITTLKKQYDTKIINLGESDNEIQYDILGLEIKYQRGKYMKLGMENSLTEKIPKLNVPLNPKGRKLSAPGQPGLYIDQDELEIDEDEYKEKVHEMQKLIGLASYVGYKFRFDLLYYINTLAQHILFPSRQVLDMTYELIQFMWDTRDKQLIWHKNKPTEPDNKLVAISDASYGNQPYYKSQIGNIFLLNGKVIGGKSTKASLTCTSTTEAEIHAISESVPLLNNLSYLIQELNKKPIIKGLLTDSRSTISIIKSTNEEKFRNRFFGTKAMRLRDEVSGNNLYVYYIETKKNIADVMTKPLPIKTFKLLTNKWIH

wild-type Ty1 RT [2] = settings: wild-type RT versus D211N RT
Method: (§1) VLP isolation and analysis. Yeast cells harboring pGTy1-H3-mhis3AI were grown in 2% galactose at 22° C. for approximately 24 hr. Cell pellets from these 0.5 L cultures were resuspended in 5 ml buffer B (Eichinger and Boeke, Cell 54: 955-966, 1988, which is incorporated herein by reference) and VLPs were isolated. […] Reactions were set up on ice, carried out for 1 hr at 22° C. and kept on ice while being spotted onto DE81 anion-exchange paper (Whatman International Ltd.; Maidstone, England).
(§2) Protein purification and analysis. Recombinant Ty1 RT (Wilhelm et al., supra, 2000) containing a cleavable N-terminal GST-tag was expressed in E. coli and purified first by affinity chromatography and then by ion exchange chromatography, as described for HIV-1 RT (Le Grice et al., Meth. Enzymol. 262: 130-44, 1995, which is incorporated herein by reference). The GST-tagged protein was eluted from a Glutathione Sepharose 4B™ gel (Amersham) gravity column with buffer (50 mM HEPES-KOH, pH 7.8, 200 mM KCl, 10% glycerol and 2 mM DTT) containing 30 mM reduced glutathione. 50 mM HEPES-KOH, pH 7.0 with 10% glycerol was added to the protein solution to lower the pH to 7.1 and the KCl concentration to 25 mM. The recombinant Ty1 RT was further purified over a Resource S™ (Amersham) cation-exchange column using a linear KCl gradient (25-500 mM). […]

wild-type Ty1 RT [3] = biological target: T1, wild-type Ty1 RT; settings: wild type Ty1 RT; free divalent cation concentrations less than 6 mM
Method: as §1, §2

## [Mg+2] [Mg^2+, MgCl2]
wild-type Ty1 RT [1]
  Enzymatic activity with Mg^2+ relative to that with Mn^2+: 3 fold
wild-type Ty1 RT [2]
  Higher affinity of wild-type RT than D211N RT for the metal ion: 50 fold
wild-type Ty1 RT [3]
  Mg^2+-dependent activation relative to Mn^2+-dependent activation: ~20 fold
